Assay [1] has as its system SJSA-1. As to the kind of experiment: Protocol B: SJSA-1 CellTiter-Glo cell viability. A general note: ATP-based viability assays read luminescence as a measure of living cells.
The test system of assay [2] is SJSA-1 (MDM2 amplified, p53 wild-type osteosarcoma). As to the kind of experiment: Protocol A: SJSA-1 growth inhibition (SRB). Particulars: Homo sapiens, SJSA-1, 72 h.
Setting [3] is: read-out: SJSA1 IC50 (μM) (Protocol B), SJSA-1, Protocol B (CellTiter-Glo), 72 hrs.
The mark [4] stands for this setting: read-out: SJSA-1 IC50 (μM) (Protocol A).
[5] abbreviates: read-out: SJSA-1 IC50 (μM) (Protocol A), SJSA-1, Protocol A (SRB), 72 hrs.

Where two headings read alike, the source gives them in different places.

For orientation: IC50 means the point on the concentration scale where inhibition reaches its midpoint.

For `CC(O)(c1cc(F)c2c(c1)C(=O)N(Cc1ncc(Cl)cn1)[C@@]2(OCC1(CO)CC1)c1ccc(Cl)cc1)[C@H]1CC[C@H](O)CC1` (single isomer, unassigned) [Example 402], in assay [1] (setting [3]), the IC50 was 0.21 µM.

For `CCC(O)(c1cc(F)c2c(c1)C(=O)N(Cc1ncc(Cl)cc1O)[C@@]2(OCCO)c1ccc(Cl)cc1)c1cn(C)cn1` (single isomer, unassigned) [Example 443], the IC50 in assay [2] (setting [4]) was found to be 0.11 µM.

`CCC(O)(c1cc(F)c2c(c1)C(=O)N(Cc1ccc(C#N)cn1)[C@@]2(O[C@H]1CCOC1)c1ccc(Cl)cc1)C1(F)CCOCC1` (single isomer, unassigned) [Example 445]: in assay [1] (setting [3]), the IC50 amounted to 3.3 µM.

With `CCC(O)(c1cc(F)c2c(c1)C(=O)N(Cc1ccc(C#N)cn1)[C@@]2(O[C@H]1CCOC1)c1ccc(Cl)cc1)C1(F)CCOCC1` (single isomer, unassigned) [Example 446], the IC50 in assay [2] (setting [4]) is 0.018 µM.

Turning to `CCC(O)(c1cc(F)c2c(c1)C(=O)N(Cc1ncc(Cl)cn1)[C@@]2(OC)c1ccc(Cl)cc1)C1(F)CCN(C)CC1` (single isomer, unassigned) [Example 563], the IC50 in assay [2] (setting [5]) is 0.025 µM.

Take `CCC(O)(c1cc(F)c2c(c1)C(=O)N(Cc1ncc(Cl)cn1)[C@@]2(OCC1(C#N)CC1)c1ccc(Cl)cc1)C1(F)CCN(C)CC1` (single isomer, unassigned) [Example 564]: the IC50 in assay [2] (setting [5]) worked out at 0.018 µM.

Turning to `CCC(O)(c1cc(F)c2c(c1)C(=O)N(Cc1ncc(Cl)cn1)[C@@]2(OC[C@@H](C)O)c1ccc(Cl)cc1)C1(F)CCN(C)CC1` (single isomer, unassigned) [Example 572], the IC50 in assay [2] (setting [5]) is 0.019 µM.

For the compound `CCC(O)(c1cc(F)c2c(c1)C(=O)N(Cc1ncc(C#N)cn1)[C@@]2(O[C@H]1CCOC1)c1ccc(Cl)cc1)c1cn(C)cn1` (stereo partly drawn) [Example 370, 2-{[(1R)-1-(4-chlorophenyl)-7-fluoro-5-[1-hydroxy-1-(1-methyl-1H-imidazol-4-yl)propyl]-3-oxo-1-[(3S)-oxolan-3-yloxy]-2,3-dihydro-1H-isoindol-2-yl]methyl}pyrimidine-5-carbonitrile], the IC50 in assay [1] (Homo sapiens, SJSA-1, 72 h, read-out: SJSA1 IC50 (μM) (Protocol B), SJSA-1, Protocol B (CellTiter-Glo), 72 hrs) amounted to 3.5 µM.

The values are drawn from patent US10526311B2 (ASTEX THERAPEUTICS LIMITED, priority 2015, dated 2020).
